Test results published in patent US9060928B2, “Tacrolimus injection preparation” (FUZHOU HARVESTER PHARMACEUTICAL R&D CO., LTD., priority 2009, dated 2015).
Where two headings read alike, the source gives them in different places.

Test system: 2% red blood cell suspension
Design: Hemolysis test result: key to the marks not given beside the values
Conditions: for Hemolysis test result: test tube 7 (+), 2.5 ml distilled water

Distilled water
Hemolysis occurs immediately: Hemolysis on addition of distilled water (in words) (test tube No. 7)
+++: Hemolysis test result (incubated at 37° C. for 15 min) | Hemolysis test result (incubated at 37° C. for 30 min) | Hemolysis test result (incubated at 37° C. for 45 min) | Hemolysis test result (incubated at 37° C. for 1.0 hr) | Hemolysis test result (incubated at 37° C. for 2.0 hrs) | Hemolysis test result (incubated at 37° C. for 3.0 hrs) | Hemolysis test result (incubated at 37° C. for 4.0 hrs)
